Assay results: patent US20220387549A1 (BEIJING LEPU PHARMACEUTICAL TECHNOLOGY CO. , LTD, priority 2019, published 2022)

Experiment: Preliminary determination of pharmacokinetic properties in SD rats
Type: in vivo
Settings: both sexes, rat, subcutaneous (SC) administration, 1 mg/kg, plasma by LC/MS
Method: Each compound was tested in two administration groups.
Tail vein intravenous injection group: The dose was 1 mg/kg. Blood samples were collected from the orbital vein of the rats before administration (0 h) and 30 min, 1 h, 2 h, 4 h, 8 h, 24 h, 48 h, 96 h, and 144 h after administration. Plasma samples were collected after centrifugation.
Subcutaneous administration group: The dose was 1 mg/kg. Blood samples were collected from the orbital vein of the rats before administration (0 h) and 1 h, 2 h, 3 h, 4 h, 8 h, 24 h, 48 h, 96 h, and 144 h after administration. Plasma samples were collected after centrifugation.
The concentrations of the corresponding compounds in the plasma samples from SD rats were determined by LC/MS.

Row | half-life [h] | SMILES
1 | 9.5 | C/C=C(\NC(=O)[C@@H](N)Cc1c[nH]cn1)C(=O)N[C@@H](CCC(=O)O)C(=O)NCC(=O)N[C@H](C(=O)N[C@@H](Cc1ccccc1)C(=O)N[C@H](C(=O)N[C@@H](CO)C(=O)N[C@@H](CC(=O)O)C(=O)N[C@H](C(=O)N[C@@H](CO)C(=O)N[C@@H](CO)C(=O)N[C@@H](Cc1ccc(O)cc1)C(=O)N[C@@H](CC(C)C)C(=O)N[C@@H](CCC(=O)O)C(=O)NCC(=O)N[C@@H](CCC(N)=O)C(=O)N[C@@H](C)C(=O)N[C@@H](C)C(=O)N[C@@H](CCCCNC(=O)COCCOCCNC(=O)COCCOCCNC(=O)CC[C@H](NC(=O)CCCCCCCCCCCCCCCCC(=O)O)C(=O)O)C(=O)N[C@@H](CCC(=O)O)C(=O)N[C@@H](Cc1ccccc1)C(=O)N[C@H](C(=O)N[C@@H](C)C(=O)N[C@@H](Cc1c[nH]c2ccccc12)C(=O)N[C@@H](CC(C)C)C(=O)N[C@H](C(=O)N[C@@H](CCCNC(=N)N)C(=O)NCC(=O)N[C@@H](CCCNC(=N)N)C(=O)NCC(N)=O)C(C)C)[C@@H](C)CC)C(C)C)[C@@H](C)O)[C@@H](C)O [Compound 1]
2 | 8.9 | C/C=C(\NC(=O)[C@@H](N)Cc1c[nH]cn1)C(=O)N[C@@H](CCC(=O)O)C(=O)NCC(=O)N[C@H](C(=O)N[C@@H](Cc1ccccc1)C(=O)N[C@H](C(=O)N[C@@H](CO)C(=O)N[C@@H](CC(=O)O)C(=O)N[C@H](C(=O)N[C@@H](CO)C(=O)N[C@@H](CO)C(=O)N[C@@H](Cc1ccc(O)cc1)C(=O)N[C@@H](CC(C)C)C(=O)N[C@@H](CCC(=O)O)C(=O)NCC(=O)N[C@@H](CCC(N)=O)C(=O)N[C@@H](C)C(=O)N[C@@H](C)C(=O)N[C@@H](CCCCNC(=O)COCCOCCOCCOCCOCCNC(=O)CC[C@H](NC(=O)CCCCCCCCCCCCCCCCC(=O)O)C(=O)O)C(=O)N[C@@H](CCC(=O)O)C(=O)N[C@@H](Cc1ccccc1)C(=O)N[C@H](C(=O)N[C@@H](C)C(=O)N[C@@H](Cc1c[nH]c2ccccc12)C(=O)N[C@@H](CC(C)C)C(=O)N[C@H](C(=O)N[C@@H](CCCNC(=N)N)C(=O)NCC(=O)N[C@@H](CCCNC(=N)N)C(=O)NCC(N)=O)C(C)C)[C@@H](C)CC)C(C)C)[C@@H](C)O)[C@@H](C)O [Compound 3]
3 | 9.7 | CC[C@H](C)[C@H](NC(=O)[C@H](Cc1ccccc1)NC(=O)[C@H](CCC(=O)O)NC(=O)[C@H](CCCCNC(=O)COCCOCCOCCOCCOCCNC(=O)CC[C@H](NC(=O)CCCCCCCCCCCCCCCCC(=O)O)C(=O)O)NC(=O)[C@H](C)NC(=O)[C@H](C)NC(=O)[C@H](CCC(N)=O)NC(=O)CNC(=O)[C@H](CCC(=O)O)NC(=O)[C@H](CC(C)C)NC(=O)[C@H](Cc1ccc(O)cc1)NC(=O)[C@H](CO)NC(=O)[C@H](CO)NC(=O)[C@@H](NC(=O)[C@H](CC(=O)O)NC(=O)[C@H](CO)NC(=O)[C@@H](NC(=O)[C@H](Cc1ccccc1)NC(=O)[C@@H](NC(=O)CNC(=O)[C@H](CCC(=O)O)NC(=O)C(NC(=O)[C@@H](N)Cc1c[nH]cn1)=C(C)C)[C@@H](C)O)[C@@H](C)O)C(C)C)C(=O)N[C@@H](C)C(=O)N[C@@H](Cc1c[nH]c2ccccc12)C(=O)N[C@@H](CC(C)C)C(=O)N[C@H](C(=O)N[C@@H](CCCNC(=N)N)C(=O)NCC(=O)N[C@@H](CCCNC(=N)N)C(=O)NCC(N)=O)C(C)C [Compound 4]
